Experimental data as given in patent US20100015126A1, “Methods of Binding of Cross-Beta Structures By Chaperones” (priority 2006, published 2010).

Legend:
[1] = biological target: T1, recombinant human HSP90beta (Homo sapiens, UniProt P08238); experiment: Competition ELISA: HSP90 binding under influence of crossbeta binding compounds and geldanamycin; details: 20 μg/ml HSP90; geldanamycin 10 μM; sRAGE 79 μg/ml; HSA 10 μM
T1 construct: purchased Dr. S. Rüdiger, Cellular Protein Chemistry, Utrecht University
Experimental: Binding of chaperones to immobilized (misfolded) protein ligands was determined using an enzyme linked immuno sorbent assay (ELISA) approach. For this purpose 50 μl/well of potential ligands at indicated concentrations or coat buffer only for control and background measurement purposes, were coated overnight at 4° C. or coated for 1 h at room temperature, with motion, in 50 mM NaHCO3 pH 9.6 (coat buffer). In general, ligands were coated at 5 μg/ml, unless stated otherwise. […] Native haemoglobin (Sigma-Aldrich, H7379), albumin, IgIV Gammagard and ovalbumin controls were prepared from lyophilized stocks. The controls were prepared by dissolving lyophilized proteins at 1 mg/ml in PBS upon resuspending by pipetting, followed by a 30 minutes period at the roller device, at room temperature. The protein solutions were centrifuged for 10 minutes at 16,000*g and diluted in coat buffer. […] After 5 washes with wash buffer followed by two washes with PBS, binding of antibodies was assessed. […] Plates were read at 450 nm. Triplicates were averaged and standard deviations calculated. […] Subsequently, sub-optimal concentrations of chaperones for binding to misfolded protein ligands are determined, and these concentrations are used for inhibition studies.

[2] = system: freshly isolated human platelets; experiment: Crossbeta-induced human platelet aggregation (aggregometer); assay type: cell-based
Experimental: Ex vivo Human Blood Platelet Aggregation Assay
The influence of crossbeta structure binding chaperones on blood platelet aggregation induced by crossbeta structure or crossbeta structure comprising pathogens is tested with washed platelets or with platelet rich plasma in an aggregometric assay. Freshly drawn human aspirin free blood is mixed gently with citrate buffer to avoid coagulation. Blood is spinned for 15′ at 150*g at 20° C. and supernatant is collected; platelet rich plasma (PRP). Buffer with 2.5% trisodium citrate, 1.5% citric acid and 2% glucose, pH 6.5 is added to a final volume ratio of 1:10 (buffer-PRP). After spinning down the platelets upon centrifugation for 15′ at 330*g at 20° C., the pellet is resuspended in HEPES-Tyrode buffer pH 6.5. Prostacyclin is added to a final concentration of 10 ng/ml, and the solution is centrifuged for 15′ at 330*g at 20° C., with a soft brake. The pellet is resuspended in HEPES-Tyrode buffer pH 7.2 in a way that the final platelet number is adjusted to 200,000-250,000 platelets/μl. Platelets are kept at 37° C. for at least 30′, before use in the assays, to ensure that they are in the resting state. Platelets of approximately five donors are isolated separately.
For the aggregometric assays, platelet solution is added to a glass tube and prewarmed to 37° C. A stirring magnet is added and rotation is set to 900 rpm, and the apparatus (Whole-blood aggregometer, Chrono-log, Havertown, Pa., USA) is blanked. A final volume of 1/10 of the volume of the platelet suspension is added, containing the agonist of interest and/or the premixed antagonist of interest, prediluted in HEPES-Tyrode buffer pH 7.2. Aggregation is followed in time by measuring the absorbance of the solution, that is decrease in time upon platelet aggregation. As a positive control, either 10 μg/ml collagen (Kollagenreagens Horm, NYCOMED Pharma GmbH, Linz, Austria; lot 502940), or 5 μM of synthetic thrombin receptor activating compound TRAP. In tests to analyse the effect of chaperones, 10-100 μg/ml glycated haemoglobin or 10-100 μg/ml amyloid-β is used to induce platelet aggregation. Aggregation is recorded for at least 15′.
Platelet aggregation-studies with freshly isolated human platelets were performed as described above. For aggregation studies, platelets of four separate donors were used on subsequent days. For each donor, concentrations of misfolded crossbeta proteins were determined that result in sub-optimal platelet aggregation when compared to maximum aggregation induced by 8 μM synthetic thrombin receptor activating peptide (TRAP; SFLLRN, SEQ ID 10; positive control). The sub-optimal crossbeta protein concentration was then used to study the effects of indicated concentrations of BiP, sRAGE and negative control buffer. Since BiP-FLAG-His and sRAGE-FLAG-His were stored in PBS with 5% glycerol, one of the. buffer controls was this glycerol buffer diluted to the same extent as the BiP and sRAGE solutions. […] Misfolded proteins, buffer control or TRAP control were pre-mixed with buffer or BiP or sRAGE, and pre-incubated for 5 minutes at room temperature, before mixtures were added to the platelet suspension that was warmed at 37° C. and stirred at 900 rpm.

Row | Binding of HSP90 to coated Aβ25-35 under influence of compound [1] | Substance | Platelet aggregation by protein alone, without activator [2] | TRAP-induced platelet aggregation ([2]; 8 μM TRAP) | Misfolded protein induced platelet aggregation ([2]; activators Aβ42t=0, HbAGE, BSA-AGE, four donors) | Platelet aggregation induced by amyloid-β1-42 ([2]; donor a) | Platelet aggregation induced by crossbeta BSA-AGE ([2]; donor a) | Platelet aggregation induced by Aβ1-42 ([2]; donor b, Aβ42t=0 26.7 μg/ml) | Platelet aggregation induced by crossbeta BSA-AGE ([2]; donor b, BSA-AGE 33.3 μg/ml) | Aβ42 induced platelet activation ([2]; donor c) | BSA-AGE induced platelet aggregation ([2]; donor c) | HbAGE induced platelet aggregation ([2]; donor c) | HbAGE induced platelet aggregation ([2]; donor d, BiP 58 μg/ml, sRAGE 37.4 μg/ml, HbAGE 80 μg/ml)
1 | did not influence binding | CEALB HSA: human serum albumin (Sanquin), negative control | – | – | – | – | – | – | – | – | – | – | –
2 | inhibited | sRAGE: soluble extracellular part of the receptor for advanced glycation endproducts | did not induce platelet aggregation | unaffected | potently inhibited | strongly inhibited | strongly inhibited | inhibited | strongly inhibited | abolish | inhibit | effectively blocked | abolishes
